scFv variants of Ab-95 (light chain) against a SARS-CoV-2 spike peptide

Data: MIT Lincoln Laboratory AlphaSeq set, Engelhart et al. 2022, doi:10.1038/s41597-022-01779-4, as distributed in FLAb.

The target is the same throughout: PDVDLGDISGINAS, from the HR2 region of SARS-CoV-2 spike.

Parent: Ab-95, a human scFv built as VH, three GGGGS repeats, VL. Only the CDRs of the light chain vary.
VH: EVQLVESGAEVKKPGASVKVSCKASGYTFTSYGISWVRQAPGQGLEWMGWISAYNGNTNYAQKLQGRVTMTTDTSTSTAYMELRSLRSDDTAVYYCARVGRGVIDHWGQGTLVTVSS
VL: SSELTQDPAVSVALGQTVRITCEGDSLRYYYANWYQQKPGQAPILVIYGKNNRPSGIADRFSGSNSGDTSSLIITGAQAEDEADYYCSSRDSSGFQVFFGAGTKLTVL

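The starting antibody came from a phage panning campaign against this peptide. In library AAYL52, one, two or three CDR residues were substituted; doubles and triples were drawn at random. The assay is AlphaSeq: two haploid yeast populations carry antibody and antigen on their surface. Binding brings cells together so that they mate, and sequencing counts the barcode pairs among the diploids. Read counts were normalised to the haploid input and turned into Kd by a linear fit to BCL2-family pairs of known affinity, for each replicate. There are three technical replicates.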

Variants are written as CDR1, CDR2 and CDR3 of the light chain (limits as in the source). Parent: EGDSLRYYYAN, GKNNRPS, SSRDSSGFQVF.
Values are log10 of the apparent Kd in nM; lower means stronger binding.
Where no diploid with the target was found in that replicate, the entry reads "ND": below detection, most likely a poor binder, though not proof of it.
Empty control strains, which show no peptide, gave a signal in 28% of pairings with library AAYL52; the median was 3.91 and 95% of these signals were weaker than 2.90. No background was subtracted. The control count says in how many pairings with the empty strains this scFv gave a signal, with their mean in brackets.

| CDR-L1 | CDR-L2 | CDR-L3 | replicates, log10 nM | empty controls |
|---|---|---|---|---|
| EGDSLRYYYDN | GKRNRPS | SSRDSGGFQVF | 3.09 / ND / ND | 3 of 9 (3.55) |
| EGDSLRYYYAN | GKNNRPS | QSRDKSGFIVF | 2.26 / 2.68 / 1.81 | 1 of 9 (3.90) |
| EGDSGQYYYAN | GKNNRPS | SSRDSVGFQVF | 4.61 / ND / ND | 1 of 9 (5.30) |
| EDDSLRYYYAN | GKNVRLS | SSRDSSGFQVF | 4.91 / 4.76 / ND | 2 of 9 (3.50) |
| EGCSLRRYYAP | GKNNRPS | SSRDSSGFQVF | 1.78 / 2.34 / 1.59 | 6 of 9 (3.79) |
| EGDSERYYDAN | GHNNRPS | SSRDSSGFQVF | 3.72 / 3.22 / 3.16 | 2 of 9 (2.94) |
| FGDSQRYYYAN | DKNNRPS | SSRDSSGFQVF | ND / ND / ND | 2 of 9 (3.55) |
| EGDSLRYYYNN | GKNNRKS | KSRDSSGFQVF | ND / ND / 4.46 | 3 of 9 (4.32) |
| EGDSLRYRYAF | GKNNRPS | SSRDSSGAQVF | 4.43 / 3.76 / 3.10 | 4 of 9 (3.78) |
| EGSSLRYYYAN | GKNNRPV | SSRDSSFFQVF | 3.97 / ND / ND | 2 of 9 (3.45) |
| EGDSLRYYYAW | GKNNRPS | SSRYSSIFQVF | ND / ND / ND | 2 of 9 (4.09) |
| EGDSLRYYYAN | GKNNRPS | SSRDSSGDKAF | 2.91 / 3.56 / 2.62 | 1 of 9 (3.85) |
| EGDMIRYYYAN | GKNNRPS | ASRDSSGFQVF | 4.44 / 4.20 / 4.35 | 3 of 9 (4.05) |
| EQNSLRYYYAN | GKNNRPS | SSRDCSGFQVF | 3.25 / ND / ND | 4 of 9 (3.54) |
| PGDSLRYYYWN | GKNNRPS | SSRDSSGFQVV | 2.68 / 2.66 / 2.43 | 2 of 9 (3.63) |
| EGDSLRYYYAN | GCNNRPS | SSRHSSWFQVF | 5.13 / 3.66 / 4.52 | 4 of 9 (4.42) |
| EGDSLRYYYAN | GKDNRPS | NSRDSSKFQVF | 3.03 / 2.68 / 2.32 | 2 of 9 (3.63) |
| EGDSLRYYYAN | GKWNRPS | SSRDSSGGHVF | 3.58 / ND / ND | 3 of 9 (4.10) |
| EGDSLQYRYAN | GKNNRPS | SSRDSSGFQVK | 2.19 / 1.92 / 1.93 | 1 of 9 (2.30) |
| EGDSLRYYYAY | QKNNRPS | SSTDSSGFQVF | 4.44 / ND / ND | 1 of 9 (4.66) |
| EGDSLKYYYAN | VTNNRPS | SSRDSSGFQVF | 5.03 / ND / ND | 1 of 9 (4.26) |
| FGDSIRYYYAN | GKNNRPL | SSRDSSGFQVF | 6.03 / 4.17 / ND | 4 of 9 (4.44) |
| EGDSYRYYYLN | GKNNRLS | SSRDSSGFQVF | 2.96 / ND / ND | 3 of 9 (3.56) |
| EGDSLRYIYAN | GKNNRPS | SSRCSSGFVVF | 2.49 / 3.60 / 2.64 | 3 of 9 (3.81) |
| EGDFLRYYYAN | GKNYRPS | SSRDTSGFQVF | 3.69 / 3.96 / 3.86 | 3 of 9 (3.47) |
| EGDSLRYYYAN | GKNNAAS | CSRDSSGFQVF | 2.85 / 2.89 / 2.78 | 1 of 9 (4.20) |
| EGDINRYYYAN | GKNNRPS | SSRDSSGFQVF | 2.92 / 2.68 / 2.64 | 2 of 9 (3.12) |
| EGDSLRYYYAN | GKNNNPS | SSRDSSGHQVF | 3.09 / 3.22 / 2.67 | 2 of 9 (4.15) |
| EGDSLRYYYRN | WKNNRPS | SSRDSSGFYVF | 4.02 / 5.12 / 4.54 | 4 of 9 (3.77) |
| EKDSLRYYYAN | GKNPRPS | SSRFSSGFQVF | ND / ND / ND | 0 of 9 |
| EGDSVRYYYAN | GKNNRPS | SSRCSSGFIVF | 3.55 / 3.67 / 3.30 | 2 of 9 (3.81) |
| KGDSLRYYYAN | GKANRPS | SSRMSSGFQVF | 3.84 / 4.04 / ND | 3 of 9 (4.05) |
| EGDSLRYQYAN | GKNNRPS | SSRDSSGFQVF | ND / ND / ND | 0 of 9 |
| FGDSLRYVYAN | GKNNRPS | SSRDSSGFQVF | 2.67 / 2.25 / 2.59 | 4 of 9 (3.86) |
| EGDSLRYYYAQ | GKNSRPS | WSRDSSGFQVF | ND / ND / ND | 2 of 9 (3.78) |
| EGDSLRYYYAN | GKNMRPS | SSRDYSGFQKF | 2.36 / 2.41 / 1.89 | 2 of 9 (3.78) |
| EGDSLRYYYAN | GKCNRPS | SSRDSSGFQVS | 4.31 / ND / ND | 1 of 9 (3.47) |
| EGDSLRYYYSS | GKNNRPS | SSRDSSGTQVF | ND / 3.85 / 4.01 | 1 of 9 (4.09) |
| EGDSLRYYYAN | NKNNRPS | SSRDSSGFQVH | 2.81 / 2.76 / 3.28 | 3 of 9 (4.08) |
| EGDSQRYYYAN | GKNNRIS | SSRDSSGPQVF | 3.18 / 2.84 / 4.06 | 3 of 9 (3.78) |
| PGDSLRYYYAN | GKYNRPS | CSRDSSGFQVF | 4.47 / ND / ND | 2 of 9 (3.66) |

Repeated from above, the 3 best binders with a signal in all replicates:

CDR-L1	CDR-L2	CDR-L3	replicates, log10 nM	empty controls
EGCSLRRYYAP	GKNNRPS	SSRDSSGFQVF	1.78 / 2.34 / 1.59	6 of 9 (3.79)
EGDSLQYRYAN	GKNNRPS	SSRDSSGFQVK	2.19 / 1.92 / 1.93	1 of 9 (2.30)
EGDSLRYYYAN	GKNMRPS	SSRDYSGFQKF	2.36 / 2.41 / 1.89	2 of 9 (3.78)